The results in this text go back to patent US4931436A, “Condensed diazepinones, processes for preparing them and pharmaceutical compositions containing these compounds” (Dr. Karl Thomae GmbH, priority 1988, dated 1990).

Protein sequences, listed by entry. Tags and fused reporters are not part of them. Residues count along the entry.
UniProt H0W1Z3, 1-590: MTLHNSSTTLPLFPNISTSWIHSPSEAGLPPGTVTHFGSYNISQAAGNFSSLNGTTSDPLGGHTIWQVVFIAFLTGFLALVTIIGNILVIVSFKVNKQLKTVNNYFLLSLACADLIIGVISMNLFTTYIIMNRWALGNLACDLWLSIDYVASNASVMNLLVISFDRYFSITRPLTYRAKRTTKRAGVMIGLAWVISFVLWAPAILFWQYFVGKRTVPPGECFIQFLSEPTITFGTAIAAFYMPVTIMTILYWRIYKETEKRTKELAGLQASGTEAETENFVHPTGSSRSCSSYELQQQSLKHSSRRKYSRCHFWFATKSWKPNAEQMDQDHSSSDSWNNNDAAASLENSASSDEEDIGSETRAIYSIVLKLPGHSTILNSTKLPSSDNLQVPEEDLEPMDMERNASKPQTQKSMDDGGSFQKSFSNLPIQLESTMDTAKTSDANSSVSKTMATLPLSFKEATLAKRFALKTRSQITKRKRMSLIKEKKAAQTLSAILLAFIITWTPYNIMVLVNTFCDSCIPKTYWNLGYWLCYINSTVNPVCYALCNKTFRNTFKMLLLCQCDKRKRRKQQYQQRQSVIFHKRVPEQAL

In the assay the target is T1, muscarinic receptors (ileum) (Cavia porcellus, UniProt H0W1Z3).
T1 construct: from tissue; host or cells: isolated ileum of the guinea pig
Nature of the assay: Dissociation constants (KB values) on the isolated ileum. Conditions: guinea pig, methacholine, 30 minutes contact.

Consider `CCN(CC)CC1CCCCN1CC(=O)N1c2ccccc2C(=O)Nc2cccnc21` (stereo not shown) [Substance X, 11-[[2-[(diethylamino)methyl]-1-piperidinyl]acetyl]-5,11-dihydro-6H-pyrido[2,3-b][1,4]benzodiazepin-6-one], for which the Kb came to 617 nM.
